One compound from article PMC5814754, “Quantitative, Wide-Spectrum Kinase Profiling in Live Cells for Assessing the Effect of Cellular ATP on Target Engagement” (Cell Chemical Biology, 2018) can be followed below.

Chains of the proteins cited; added tags and fusions are not shown.
UniProt Q13546, whole entry: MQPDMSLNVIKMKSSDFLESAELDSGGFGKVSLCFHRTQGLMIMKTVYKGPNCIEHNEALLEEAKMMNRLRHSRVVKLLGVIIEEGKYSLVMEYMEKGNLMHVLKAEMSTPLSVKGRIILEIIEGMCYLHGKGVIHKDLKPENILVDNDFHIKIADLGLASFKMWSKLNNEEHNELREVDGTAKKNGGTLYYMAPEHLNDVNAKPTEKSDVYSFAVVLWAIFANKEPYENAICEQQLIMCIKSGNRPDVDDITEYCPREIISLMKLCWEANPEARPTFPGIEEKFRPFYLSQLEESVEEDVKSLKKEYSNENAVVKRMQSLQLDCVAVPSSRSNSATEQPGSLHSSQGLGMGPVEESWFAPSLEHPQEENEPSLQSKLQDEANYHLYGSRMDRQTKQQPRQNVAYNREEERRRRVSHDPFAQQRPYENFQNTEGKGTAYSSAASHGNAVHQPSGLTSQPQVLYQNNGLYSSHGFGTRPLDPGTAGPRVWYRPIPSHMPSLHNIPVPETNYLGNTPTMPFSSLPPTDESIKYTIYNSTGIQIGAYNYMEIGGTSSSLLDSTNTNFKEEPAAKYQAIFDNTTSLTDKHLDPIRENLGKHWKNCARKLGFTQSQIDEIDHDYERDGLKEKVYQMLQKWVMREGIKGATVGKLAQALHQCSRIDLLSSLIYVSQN

For the assay, the target named is RIPK1 (Homo sapiens, UniProt Q13546).

“And” between values parts separate entries of the source, which are not always exact repeats. Equal values may be shown once.

The IC50 is the concentration at which inhibition is half-maximal. A low value points to greater potency in that assay. Consider `CN1C(=O)C(Cc2c[nH]c3ccccc23)NC1=S` (stereo not shown), for which the IC50 was 0.0731 µM and 0.107 µM.
